The text below walks through data of publication PMC3108608 (2011).

By UniProt entry, the sequences of proteins in these tests, tags left out. Residues count along the entry.
UniProt P05979, 25-600: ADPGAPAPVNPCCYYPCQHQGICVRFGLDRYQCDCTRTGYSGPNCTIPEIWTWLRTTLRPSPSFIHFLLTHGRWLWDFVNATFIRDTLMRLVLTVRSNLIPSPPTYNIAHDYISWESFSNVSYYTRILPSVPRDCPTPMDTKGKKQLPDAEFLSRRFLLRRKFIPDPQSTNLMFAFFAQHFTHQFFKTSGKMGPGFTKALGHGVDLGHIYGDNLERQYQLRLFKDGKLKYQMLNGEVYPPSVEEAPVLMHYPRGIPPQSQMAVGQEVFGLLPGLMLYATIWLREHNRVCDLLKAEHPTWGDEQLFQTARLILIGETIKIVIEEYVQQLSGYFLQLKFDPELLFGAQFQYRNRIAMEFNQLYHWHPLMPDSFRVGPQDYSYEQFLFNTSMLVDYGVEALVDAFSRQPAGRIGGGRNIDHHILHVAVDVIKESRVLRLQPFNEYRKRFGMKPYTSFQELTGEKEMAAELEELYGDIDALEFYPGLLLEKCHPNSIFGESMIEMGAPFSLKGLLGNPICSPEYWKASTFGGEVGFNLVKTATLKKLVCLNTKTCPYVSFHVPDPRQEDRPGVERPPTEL
UniProt P35354, 18-604: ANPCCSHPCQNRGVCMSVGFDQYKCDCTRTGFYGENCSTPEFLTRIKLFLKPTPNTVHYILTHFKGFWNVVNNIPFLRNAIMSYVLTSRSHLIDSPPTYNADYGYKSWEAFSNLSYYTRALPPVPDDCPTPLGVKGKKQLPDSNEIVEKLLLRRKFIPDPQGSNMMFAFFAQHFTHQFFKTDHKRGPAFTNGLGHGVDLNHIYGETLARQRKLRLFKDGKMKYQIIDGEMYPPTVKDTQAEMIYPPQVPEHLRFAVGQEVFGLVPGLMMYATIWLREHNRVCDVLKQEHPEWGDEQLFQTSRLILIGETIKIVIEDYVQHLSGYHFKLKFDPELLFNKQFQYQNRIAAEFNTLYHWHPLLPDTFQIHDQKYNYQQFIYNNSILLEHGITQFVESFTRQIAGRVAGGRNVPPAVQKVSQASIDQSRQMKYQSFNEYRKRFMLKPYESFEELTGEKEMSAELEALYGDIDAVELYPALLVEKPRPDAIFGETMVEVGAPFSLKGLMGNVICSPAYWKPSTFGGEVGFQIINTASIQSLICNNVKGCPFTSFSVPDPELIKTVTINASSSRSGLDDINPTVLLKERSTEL

Data set [1] relates to PGE2 formation in LPS-stimulated human whole blood. Description: PGE2 formation in LPS-stimulated human whole blood. The class given is cell-based.
In data set [2] the test system is 6-keto PGF1α formation in LPS-stimulated human whole blood. Put plainly: 6-keto PGF1α formation in LPS-stimulated human whole blood. The data set is classed as cell-based. The conditions noted are these: 5 h, read-out: 6-keto PGF1α formation, failed to suppress up to.
For data set [3], the system named is TXB2 formation in LPS-stimulated human whole blood. Put plainly: TXB2 formation in LPS-stimulated human whole blood. The class given is cell-based. The conditions noted are these: 5 h, read-out: TXB2 formation, failed to suppress up to.
Data set [4] deals with 12-HHT formation (mainly derived from platelet COX-1) in human whole blood. Put plainly: 12-HHT formation in human whole blood (A23187 plus AA). The conditions noted are these: 10 min, read-out: 12-HHT formation, failed to suppress up to. The data set is classed as cell-based.
The subject of data set [5] is carrageenan-induced pleurisy. Description: Carrageenan-induced pleurisy in rats. The data set is classed as in vivo, rat. The conditions noted are these: 4 h after carrageenan.
The test system of data set [6] is PGE2 formation from exogenous AA in human whole blood. Conditions: LPS 16 h pre-stimulation, 20 μM AA.
The conditions of data set [7]: human, in vivo, po; cited from earlier work.
Data set [8] addresses purified ovine COX-1 (Ovis aries, UniProt P05979). Put plainly: biochemical.
For data set [9], the target named is human recombinant COX-2 (Homo sapiens, UniProt P35354). Put plainly: biochemical.
For data set [10], the system named is PGE2 formation from exogenous AA in human whole blood. Description: tissue or blood. The conditions noted are these: read-out: IC50 of PGE2 formation.
In data set [11] the test system is 6-keto PGF1α formation from exogenous AA in human whole blood. Description: tissue or blood. The conditions noted are these: 16 h, read-out: 6-keto PGF1α formation, not significantly affected up to.

In the case of `CC(C)=CCCC1(C)C(CC=C(C)C)CC2(CC=C(C)C)C(=O)C1(C(=O)C(C)C)C(=O)C(CC=C(C)C)=C2O` (centres unmarked) [Hyp, Hyperforin], in data set [1] (Homo sapiens, 5 h, read-out: inhibition of PGE2 formation), the inhibition at 1 µM was determined as 25 ± 3%. Besides, the IC50 in data set [1] (Homo sapiens, read-out: apparent IC50 of PGE2 formation) is roughly 3 µM; in [2], greater than 30 µM; in data set [3], greater than 30 µM; in [4], greater than 30 µM; in [8] it was 12 µM; in [9] it was greater than 30 µM. Further, the IC50 in data set [10] is 0.25 µM; in [11], greater than 30 µM. Moreover, the “residual PGE2 formation” value in data set [1] (LPS-stimulated whole blood, maximal effect) is “approx. 50 % of vehicle control”. In addition, in data set [5] (Hyp 4 mg kg^−1 i.p., indomethacin 5 mg kg^−1), the “attenuation of cell infiltration” value was determined as 50%. In data set [5] (i.p. 30 min before, Hyperforin 4 mg kg^−1, Indomethacin 5 mg kg^−1, vehicle 0.44 ± 0.04), the Exudate volume amounted to 0.16 ± 0.05 mL. Further, in data set [6], the “concentration at which inhibition of PGE2 formation reaches significance” value was determined as 30 nM. Besides, the steady-state concentration in data set [7] was 0.28 µM.

A word on the inhibition: it is the relative decrease from the control value, in per cent.
